## Permeability data for macrocyclic peptides

Values of Townsend et al. 2020, doi:10.26434/chemrxiv.13335941.v1, as listed in CycPeptMPDB.

PAMPA is the parallel artificial membrane permeability assay, which has no cells and reads passive diffusion. Values are log10 P with P in cm/s, so -5 is more permeable than -7.

compound,PAMPA (log10 cm/s)
CC(C)C[C@@H]1NC(=O)[C@@H](C)N(C)C(=O)[C@H]2CCCN2C(=O)[C@H](Cc2ccccc2)NC(=O)CN(Cc2ccccc2)C(=O)[C@H]2CCCN2C(=O)[C@H](CC(C)C)N(C)C1=O,-5.41
CC(C)C[C@H]1NC(=O)[C@@H](C)N(C)C(=O)[C@H]2CCCN2C(=O)[C@H](Cc2ccccc2)NC(=O)[C@H](CC(C)C)N(C)C(=O)[C@H]2CCCN2C(=O)C[C@H](Cc2ccccc2)NC1=O,-6.44
CCCN1CC(=O)N(C)[C@H](CC(C)C)C(=O)N[C@H](CC(C)C)C(=O)N2CCC[C@H]2C(=O)N(C)[C@@H](CC(C)C)C(=O)N[C@@H](Cc2ccccc2)C(=O)N2CCC[C@H]2C1=O,-4.96
CC(C)C[C@@H]1NC(=O)C[C@H](Cc2ccccc2)NC(=O)[C@H]2CCCN2C(=O)[C@H](Cc2ccccc2)NC(=O)[C@@H](CC(C)C)NC(=O)[C@H]2CCCN2C(=O)[C@@H](CC(C)C)N(C)C1=O,-5.54
CC(C)C[C@@H]1C(=O)N[C@@H](Cc2ccccc2)C(=O)N[C@@H](C)C(=O)N(C)[C@@H](CC(C)C)C(=O)N[C@@H](Cc2ccccc2)CC(=O)N2CCC[C@H]2C(=O)N1C,-6.02
CC(C)C[C@@H]1C(=O)N(Cc2ccccc2)CC(=O)N2CCC[C@H]2C(=O)N(C)[C@@H](CC(C)C)C(=O)N[C@@H](Cc2ccccc2)C(=O)N[C@@H](C)C(=O)N1C,-5.51
CC(C)C[C@@H]1NC(=O)[C@H]2CCCN2C(=O)[C@@H](CC(C)C)NC(=O)CN(Cc2ccccc2)C(=O)C[C@H](Cc2ccccc2)NC(=O)[C@H]2CCCN2C(=O)[C@H](Cc2ccccc2)NC1=O,-6.17
CC(C)C[C@@H]1NC(=O)[C@@H](CC(C)C)NC(=O)[C@@H](C)NC(=O)[C@H](Cc2ccccc2)NC(=O)[C@@H](CC(C)C)N(C)C(=O)[C@H]2CCCN2C1=O,-5.38
CC(C)C[C@@H]1NC(=O)[C@@H](CC(C)C)NC(=O)C[C@H](Cc2ccccc2)NC(=O)[C@H](Cc2ccccc2)NC(=O)[C@@H](CC(C)C)NC(=O)[C@H]2CCCN2C1=O,-5.03
CC(C)C[C@@H]1NC(=O)[C@H](C)NC(=O)[C@@H]2CCCN2C(=O)[C@H](Cc2ccccc2)NC(=O)[C@@H](CC(C)C)NC(=O)[C@@H]2CCCN2C(=O)[C@H](CC(C)C)NC1=O,-6.18
CC(C)C[C@H]1NC(=O)[C@H](C)NC(=O)[C@@H]2CCCN2C(=O)[C@H](Cc2ccccc2)NC(=O)[C@H](CC(C)C)N(C)C(=O)[C@@H]2CCCN2C(=O)[C@H](CC(C)C)N(C)C1=O,-5.51
CC(C)C[C@@H]1C(=O)N2CCC[C@H]2C(=O)N[C@H](CC(C)C)C(=O)N[C@@H](Cc2ccccc2)C(=O)N2CCC[C@@H]2C(=O)N[C@@H](Cc2ccccc2)CC(=O)N[C@H](CC(C)C)C(=O)N1C,-5.82
CC(C)C[C@H]1NC(=O)[C@H](C)NC(=O)[C@@H]2CCCN2C(=O)[C@H](Cc2ccccc2)NC(=O)CN(Cc2ccccc2)C(=O)[C@@H]2CCCN2C(=O)[C@H](CC(C)C)N(C)C1=O,-5.75
CC(C)C[C@@H]1C(=O)N[C@H](CC(C)C)C(=O)N2CCC[C@H]2C(=O)N(Cc2ccccc2)CC(=O)N[C@@H](Cc2ccccc2)C(=O)N2CCC[C@H]2C(=O)N[C@@H](C)C(=O)N1C,-6.03
CC(C)C[C@H]1NC(=O)[C@@H]2CCCN2C(=O)C[C@H](Cc2ccccc2)NC(=O)[C@H](CC(C)C)N(C)C(=O)[C@H](C)NC(=O)[C@H](Cc2ccccc2)NC1=O,-6.89
CCCN1CC(=O)N(C)[C@@H](CC(C)C)C(=O)N(Cc2ccccc2)CC(=O)N2CCC[C@@H]2C(=O)N(C)[C@@H](CC(C)C)C(=O)N[C@@H](Cc2ccccc2)C(=O)N2CCC[C@@H]2C1=O,-5.17
CC(C)C[C@@H]1NC(=O)[C@H]2CCCN2C(=O)[C@H](CC(C)C)NC(=O)[C@H](CC(C)C)N(C)C(=O)C[C@H](Cc2ccccc2)NC(=O)[C@H](Cc2ccccc2)NC1=O,-5.39

The 2 highest values of PAMPA among the entries above:

compound,PAMPA (log10 cm/s)
CCCN1CC(=O)N(C)[C@H](CC(C)C)C(=O)N[C@H](CC(C)C)C(=O)N2CCC[C@H]2C(=O)N(C)[C@@H](CC(C)C)C(=O)N[C@@H](Cc2ccccc2)C(=O)N2CCC[C@H]2C1=O,-4.96
CC(C)C[C@@H]1NC(=O)[C@@H](CC(C)C)NC(=O)C[C@H](Cc2ccccc2)NC(=O)[C@H](Cc2ccccc2)NC(=O)[C@@H](CC(C)C)NC(=O)[C@H]2CCCN2C1=O,-5.03

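The data file gives no further conditions (lipid, pH, time, direction or concentration), and values from different papers need not be comparable. The list need not hold all peptides of the study. Entries at the database's floor value (log10 P of -10) are not listed.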